Results from US4711245A, “Sensor for components of a liquid mixture” (Genetics International, Inc., priority 1983, dated 1987).

The chains behind the UniProt entries cited, without tags or fusion partners. Where a name states a change or a piece, a line headed by the entry shows the natural chain unless it says otherwise.
UniProt P13006: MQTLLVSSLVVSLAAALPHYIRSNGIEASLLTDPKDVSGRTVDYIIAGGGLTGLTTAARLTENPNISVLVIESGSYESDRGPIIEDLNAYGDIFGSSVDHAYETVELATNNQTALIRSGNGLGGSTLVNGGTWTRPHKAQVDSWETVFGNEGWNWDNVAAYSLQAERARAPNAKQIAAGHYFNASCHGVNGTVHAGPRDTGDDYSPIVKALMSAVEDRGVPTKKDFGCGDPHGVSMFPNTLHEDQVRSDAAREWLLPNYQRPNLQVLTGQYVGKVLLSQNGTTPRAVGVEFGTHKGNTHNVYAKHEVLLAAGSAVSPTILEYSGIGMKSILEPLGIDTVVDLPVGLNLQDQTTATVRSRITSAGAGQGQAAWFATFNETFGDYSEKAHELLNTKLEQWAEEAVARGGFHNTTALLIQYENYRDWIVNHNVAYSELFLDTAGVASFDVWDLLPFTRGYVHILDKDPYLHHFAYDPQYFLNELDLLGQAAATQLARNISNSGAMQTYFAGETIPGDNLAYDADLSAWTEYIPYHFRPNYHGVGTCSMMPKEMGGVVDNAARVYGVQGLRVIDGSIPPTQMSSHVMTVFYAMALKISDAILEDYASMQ

Assays:
[1] = dc cyclic voltammetry of ferrocene derivatives (redox potential); assay type: physicochemical; details: pH 7 and 25° C.
glucose oxidase = glucose oxidase (Aspergillus niger, UniProt P13006); details: for Rates of glucose oxidase oxidation: pH 7 and 25° C., glucose/glucose oxidase system; for second order rate constant for the reaction between ferricinium ion and reduced glucose oxidase: 50 mM potassium phosphate buffer, pH 7.0, 50 mM glucose, substrate excess

1,1'-dimethylferrocene
Eo/mV vs SCE [1]: 100 mV | Rates of glucose oxidase oxidation (glucose oxidase): 44

ferrocene
Eo/mV vs SCE [1]: 165 mV | second order rate constant for the reaction between ferricinium ion and reduced glucose oxidase (glucose oxidase): 10^4 m^-1 s^-1 | Rates of glucose oxidase oxidation (glucose oxidase): 15

1,1'-ferrocene dicarboxylic acid
Eo/mV vs SCE [1]: 385 mV | second order rate constant for the reaction between ferricinium ion and reduced glucose oxidase (glucose oxidase): 10^4 m^-1 s^-1 | Rates of glucose oxidase oxidation (glucose oxidase): 15
